Results reported in patent US20230146795A1, “ENHANCEMENT OF ANTI-TUMOR ACTIVITY OF SHP2 INHIBITOR PYRIMIDINONE IN COMBINATION WITH NOVEL CANCER MEDICINES IN CANCERS” (TAIHO PHARMACEUTICAL CO., LTD., priority 2020, published 2023).

Experiments:
MV-4-11 = test: Anti-proliferation assay (CellTiter-Glo 2.0), combination index, MV-4-11; type: cell-based; conditions: Compound 1 123 + combination drug 41.2 nmol/L (1:0.3)
Experimental: Cell lines were obtained from ATCC or Health Science Research Resources Bank.
384 well culture plate (781086, Greiner Bio-One International) was used for cell survival rate measurement assay. Each cell lines were collected by ordinary method, then suspended in indicated medium containing 10% fetal bovine serum in table 3. The number of cells seeded per well was set to 500 cells/20 μL. After incubation at 37° C. for 24 hours under 5% CO2, Compound 1 and additional compound having an antitumor effect or a vehicle (DMSO) was added to each well by using D300e Digital Dispenser (Tecan). The concentration of Compound 1 was set to 10 concentrations. The concentration of each anti-cancer reagents set to 8 concentrations including 0 nM. After adding the medicine to the cells, the cells were further incubated at 37° C. for 3 days under 5% CO2. Cell survival rates were calculated by adding 20 μL of CellTiter-Glo(registered trademark) 2. 0 (Promega) solution to each well, incubating the cells at room temperature for 10 minutes, and then measuring the chemiluminescence intensity of each well using a plate reader (ARVO).
A combination index (CI) value at each combined concentration of the medicines was determined.

[1] = test system: human colorectal cancer cell line SW837; test: Antitumor effect on SW837 tumor subcutaneously implanted to SCID-Beige mouse; type: in vivo; conditions: cetuximab alone, 1 mg/kg/day intra-peritoneal on day 1, 4, 8, 11, 15, 18, 22, 25; day of assessment
Experimental: With reference to Clin Cancer Invest. 2011, 121 (11): 4311-4321, a cell suspension of a human gastric cancer line SW837 (available from American Type Culture Collection) was subcutaneously implanted to 6-week-old male SCID-Beige mice (Charles River Japan, Inc.) at 8×10^6 cells/mouse. For grouping (n=5/group), after the cell suspension implantation, tumor volumes (TV) were calculated according to the expression given below, and mice having TV of 100 to 200 mm^3 were selected and assigned such that average TV was equal among groups. The day at which the grouping was carried out was defined as Day 0.
TV (mm^3)=(Major axis×Minor axis^2)/2 (units for the major axis and the minor axis were mm).
Compound 1 at 25 mg/kg/day was orally administered once a day for 28 days. And cetuximab at 1 mg/kg/day (in terms of erbitux) was administered intra-peritoneal injection on day 1, 4, 8, 11, 15, 18, 22, 25. […]
Antitumor effects were evaluated by using the difference between the average values of tumor volumes (TV) in two groups to be compared at the day of assessment, as an index. TV was calculated according to the expression given below from TV values on the day of measurement and on the day of grouping. Also, T/C (%) was calculated from the average RTV values in medicine administration groups and a control group. […]

Row | Compound | CI (MV-4-11) | T/C (%) [1]
1 | CNC(=O)c1cc(Oc2ccc(NC(=O)Nc3ccc(Cl)c(C(F)(F)F)c3)cc2)ccn1 [Sorafenib] | 0.158 | –
2 | cetuximab: antibody molecular targeting drug, EGFR inhibitor | – | 37.7%
